Experimental findings from PMC12724200 (mSphere, 2025) are described below.

By UniProt entry, the sequences of proteins in these tests, tags left out. Residues count along the entry.
UniProt Q03W64, 1-326: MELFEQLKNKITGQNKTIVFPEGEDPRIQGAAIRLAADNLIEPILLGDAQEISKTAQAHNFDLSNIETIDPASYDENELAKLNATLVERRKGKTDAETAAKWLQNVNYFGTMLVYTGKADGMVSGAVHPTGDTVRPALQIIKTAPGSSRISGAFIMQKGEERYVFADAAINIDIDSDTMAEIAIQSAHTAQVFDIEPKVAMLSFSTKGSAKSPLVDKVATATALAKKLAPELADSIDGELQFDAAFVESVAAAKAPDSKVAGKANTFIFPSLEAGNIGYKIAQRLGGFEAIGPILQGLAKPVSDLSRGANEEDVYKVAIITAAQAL

A value given as a limit tells only on which side of the number the result lay.

Data set [1] concerns the target L. mesenteroides PTA (Leuconostoc mesenteroides, UniProt Q03W64). The class given is biochemical.
The test system of data set [2] is THP-1.
For data set [3], the system named is MRC-5.
Data set [4] has as its system A549.

For the substance Dimethyldithiocarbamate [DMDC], the IC50 – broadly, the midpoint of a concentration-inhibition curve – in data set [1] was over 1000 µM. The results for the “50% lethal conc. LC50” value in data set [2], in data set [3] and in data set [4] were 327 µg/mL, 11 µg/mL and 24 µg/mL, respectively. In addition, the 85% survival conc. is 200 µg/mL in data set [2], 2 µg/mL in data set [3] and 10 µg/mL in data set [4]. The LC50/MIC in data set [2] was determined as 210; in data set [3] it was 7; in data set [4] it was 15.
